Measurements from paper PMC9231376, “Membrane Permeability and Aqueous Stability Study of Linear and Cyclic Diarylheptanoids from Corylus maxima” (Pharmaceutics, 2022).
Several values for one entry are separate records, joined by “and”; a condition that tells them apart may be missing. Identical values can stand only once.

Columns and labels:
[1] = Determination of aqueous stability (UHPLC-DAD, 4 h at 37 °C); format: physicochemical; settings: for Aqueous stability pH = 6.8: compound concentration after 4 h of incubation compared to the initial value: pH 6.8 simulated intestinal fluid
Experimental: The aqueous solutions and buffers were prepared as follows: pH = 1.2, 1.0 g NaCl and 3.5 mL HCl dissolved in distilled water to achieve the final volume of 500.0 mL; pH = 6.8, 20.2 g Na2HPO4·7H2O and 3.4 g NaH2PO4·H2O dissolved in distilled water to achieve the final volume of 1000.0 mL, pH adjustment with 0.5 M NaOH or 0.5 M HCl; pH = 7.4, one PBS tablet (phosphate buffered saline, pH 7.4; Sigma Aldrich, St. Louis, MO, USA) dissolved in 200.0 mL of distilled water.
With the aforementioned buffers, 10 mM dimethyl sulfoxide stock solutions of the isolated compounds were diluted 100-fold. […] Statistical differences between the AUC values were evaluated by a paired-sample t-test, changes were considered significant when the p-values were lower than 0.05. Compounds with no notable change in their AUC and with no degradation products detected were considered to be stable. For degradable compounds, the above-mentioned validated UHPLC-DAD method was used to examine the change in compound concentration. All experiments were performed in triplicates (n = 3).

[2] = Parallel artificial membrane permeability assay for the gastrointestinal tract (PAMPA-GI); format: in vitro ADME; settings: donor pH 6.8, acceptor pH 7.4, 37 °C, 4 h, n = 9; Pe in cm/s; n.d. = not detected in the acceptor phase
Experimental: (§1) The test solutions were prepared with dimethyl sulfoxide (DMSO) at the concentration of 10.0 mM. These were diluted with phosphate buffers (pH = 7.4 for the PAMPA-BBB and pH = 6.8 for the PAMPA-GI) to obtain the donor solutions (297.0 μL buffer + 3.0 μL DMSO solution) and filtered through Phenex-RC 15 mm, 0.2 μm syringe filters (Gen-Lab Ltd., Budapest, Hungary). A parallel artificial membrane permeability assay (PAMPA) system was used to determine the effective permeability (Pe) for the compounds of interest. […] After the incubation the PAMPA plates were separated and the compound concentrations in the donor (CD(t)) and acceptor (CA(t)) solutions, as well as in the donor solution at the zero time point (CD(0)) were determined by UHPLC-DAD. The effective permeability and the membrane retention in the PAMPA-BBB (1) and the PAMPA GI (2) experiments were calculated by the following equations [12]:(1) Pe=−2.303/A(t−τSS)·(VA·VD/VA+VD)·lg[1−(VA+VD/(1−MR)·VD)×(CA(t)/CD(0))] […]
(§2) All experiments were performed in triplicates on three consecutive days (n = 9), caffeine standard was used as positive, while rutin as negative control. ClogP values were calculated by ChemAxon Marvin 22.3.

[3] = Parallel artificial membrane permeability assay for the blood–brain barrier (PAMPA-BBB); format: in vitro ADME; settings: donor pH 7.4, acceptor pH 7.4, 37 °C, 4 h, n = 9; Pe in cm/s; n.d. = not detected in the acceptor phase
Experimental: as §1, §2

Row | Compound | Aqueous stability pH = 6.8: compound concentration after 4 h of incubation compared to the initial value ([1]; n = 3, * p < 0.05 vs initial) | log Pe PAMPA-GI [2] | log Pe PAMPA-BBB [3] | maximum decomposition rate measured ([1]; aqueous media) | Aqueous stability pH = 1.2: compound concentration after 4 h of incubation compared to the initial value ([1]; pH 1.2 simulated gastric fluid, n = 3) | Aqueous stability pH = 7.4: compound concentration after 4 h of incubation compared to the initial value ([1]; pH 7.4 PBS, n = 3, * p < 0.05 vs initial) | Significance of decrease in compound concentration (in words) ([1]; paired-sample t-test, p < 0.05, pH 1.2, 6.8, 7.4)
1 | O=C(/C=C/CCc1ccc(O)c(O)c1)CCc1ccc(O)c(O)c1 [hirsutenone (3), hirsutenone] | 96.22 ± 2.87% |  |  |  |  |  | 
2 | myricitrin [myricitrin (11)] | 99.94 ± 0.55% | not detected in the acceptor phase | not detected in the acceptor phase | 48.44% | 96.23 ± 2.46% | 48.44 ± 6.15% and 48.44 ± 6.15 * % | decreased significantly only at pH 7.4
